Measurements as given in ChEMBL document CHEMBL1157008, “Discovery of 2-{4-[(3S)-piperidin-3-yl]phenyl}-2H-indazole-7-carboxamide (MK-4827): a novel oral poly(ADP-ribose)polymerase (PARP) inhibitor efficacious in BRCA-1 and -2 mutant tumors” (J Med Chem, 2009).

The chains behind the UniProt entries cited, without tags or fusion partners. Where a name states a change or a piece, a line headed by the entry shows the natural chain unless it says otherwise.
UniProt Q9UKK3: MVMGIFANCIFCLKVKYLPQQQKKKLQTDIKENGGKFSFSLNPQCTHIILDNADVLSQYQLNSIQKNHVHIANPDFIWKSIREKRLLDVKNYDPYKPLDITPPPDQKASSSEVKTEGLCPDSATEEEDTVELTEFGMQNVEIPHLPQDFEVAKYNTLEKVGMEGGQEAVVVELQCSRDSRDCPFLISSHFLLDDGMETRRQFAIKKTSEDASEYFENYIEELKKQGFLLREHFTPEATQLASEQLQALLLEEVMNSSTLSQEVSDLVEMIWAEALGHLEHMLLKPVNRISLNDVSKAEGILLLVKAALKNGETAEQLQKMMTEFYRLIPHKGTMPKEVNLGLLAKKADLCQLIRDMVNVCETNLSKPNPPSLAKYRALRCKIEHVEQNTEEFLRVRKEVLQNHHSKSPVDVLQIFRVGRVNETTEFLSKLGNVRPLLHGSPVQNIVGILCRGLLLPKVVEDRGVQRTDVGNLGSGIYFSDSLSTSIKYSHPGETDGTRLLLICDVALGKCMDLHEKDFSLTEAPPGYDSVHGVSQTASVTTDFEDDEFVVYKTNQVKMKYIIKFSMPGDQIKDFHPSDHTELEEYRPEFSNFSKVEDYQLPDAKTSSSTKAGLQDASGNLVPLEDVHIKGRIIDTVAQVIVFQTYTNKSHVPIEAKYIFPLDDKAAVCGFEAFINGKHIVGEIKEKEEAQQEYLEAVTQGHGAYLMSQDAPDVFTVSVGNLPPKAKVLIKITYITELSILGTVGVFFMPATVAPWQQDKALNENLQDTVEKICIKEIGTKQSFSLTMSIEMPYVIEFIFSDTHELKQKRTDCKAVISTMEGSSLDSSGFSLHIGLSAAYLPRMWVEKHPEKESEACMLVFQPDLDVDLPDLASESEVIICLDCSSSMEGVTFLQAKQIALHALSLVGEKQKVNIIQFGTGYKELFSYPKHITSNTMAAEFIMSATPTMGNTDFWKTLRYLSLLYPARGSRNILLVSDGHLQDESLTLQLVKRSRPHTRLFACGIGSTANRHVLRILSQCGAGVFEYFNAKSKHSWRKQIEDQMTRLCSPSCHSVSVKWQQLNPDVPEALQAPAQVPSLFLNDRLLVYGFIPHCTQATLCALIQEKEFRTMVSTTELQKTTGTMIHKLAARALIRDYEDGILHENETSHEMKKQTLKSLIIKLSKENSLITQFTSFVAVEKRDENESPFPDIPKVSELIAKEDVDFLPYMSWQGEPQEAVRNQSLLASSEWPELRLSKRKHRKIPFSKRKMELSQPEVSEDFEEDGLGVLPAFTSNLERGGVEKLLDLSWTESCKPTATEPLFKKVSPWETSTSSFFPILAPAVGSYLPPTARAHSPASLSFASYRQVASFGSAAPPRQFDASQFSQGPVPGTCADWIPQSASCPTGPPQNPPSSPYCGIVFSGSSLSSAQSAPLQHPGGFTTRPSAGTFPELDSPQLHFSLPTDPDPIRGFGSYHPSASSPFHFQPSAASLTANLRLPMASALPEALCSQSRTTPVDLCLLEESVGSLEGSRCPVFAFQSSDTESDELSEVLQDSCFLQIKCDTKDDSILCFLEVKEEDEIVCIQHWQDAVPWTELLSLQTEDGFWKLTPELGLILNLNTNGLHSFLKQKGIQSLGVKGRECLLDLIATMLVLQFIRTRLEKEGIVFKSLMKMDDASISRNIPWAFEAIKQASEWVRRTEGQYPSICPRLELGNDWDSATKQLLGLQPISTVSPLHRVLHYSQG

Tests used:
[1] = target: T1, Poly [ADP-ribose] polymerase tankyrase-1 (Homo sapiens, UniProt O95271)
T1 sequence (O95271 whole entry): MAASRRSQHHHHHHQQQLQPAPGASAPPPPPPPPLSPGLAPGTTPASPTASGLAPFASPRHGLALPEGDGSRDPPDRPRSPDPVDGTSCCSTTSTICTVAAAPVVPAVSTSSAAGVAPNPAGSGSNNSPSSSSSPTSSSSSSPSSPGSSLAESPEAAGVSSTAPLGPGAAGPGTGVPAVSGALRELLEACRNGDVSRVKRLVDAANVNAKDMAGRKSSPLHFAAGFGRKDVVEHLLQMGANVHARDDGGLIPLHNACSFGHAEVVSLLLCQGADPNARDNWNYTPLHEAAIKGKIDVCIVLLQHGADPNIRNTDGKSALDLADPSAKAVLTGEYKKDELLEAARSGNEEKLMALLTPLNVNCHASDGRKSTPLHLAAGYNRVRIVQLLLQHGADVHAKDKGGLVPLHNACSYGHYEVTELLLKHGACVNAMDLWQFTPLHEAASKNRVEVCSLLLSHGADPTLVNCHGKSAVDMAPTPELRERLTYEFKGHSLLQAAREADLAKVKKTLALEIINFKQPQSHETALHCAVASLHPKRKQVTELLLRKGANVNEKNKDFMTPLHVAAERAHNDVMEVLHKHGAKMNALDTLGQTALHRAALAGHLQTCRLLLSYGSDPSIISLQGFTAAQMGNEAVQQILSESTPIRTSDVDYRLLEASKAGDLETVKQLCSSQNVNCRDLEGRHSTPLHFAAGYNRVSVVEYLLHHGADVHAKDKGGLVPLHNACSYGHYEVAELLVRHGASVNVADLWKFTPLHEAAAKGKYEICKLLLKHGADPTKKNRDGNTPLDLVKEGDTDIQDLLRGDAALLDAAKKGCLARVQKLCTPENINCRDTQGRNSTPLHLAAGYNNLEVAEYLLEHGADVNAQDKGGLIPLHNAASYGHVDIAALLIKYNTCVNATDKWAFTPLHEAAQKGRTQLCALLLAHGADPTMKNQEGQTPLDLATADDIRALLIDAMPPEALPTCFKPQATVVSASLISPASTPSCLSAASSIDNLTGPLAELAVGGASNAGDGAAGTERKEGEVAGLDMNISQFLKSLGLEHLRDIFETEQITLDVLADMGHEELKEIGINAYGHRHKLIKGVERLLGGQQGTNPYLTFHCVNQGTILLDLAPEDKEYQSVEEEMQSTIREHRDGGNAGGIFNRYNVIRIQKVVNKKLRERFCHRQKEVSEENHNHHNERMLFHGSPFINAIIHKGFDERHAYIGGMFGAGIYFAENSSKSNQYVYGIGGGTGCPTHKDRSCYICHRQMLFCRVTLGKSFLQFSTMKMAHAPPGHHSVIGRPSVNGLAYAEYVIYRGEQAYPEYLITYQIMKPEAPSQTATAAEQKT

[2] = target: Protein mono-ADP-ribosyltransferase PARP4 (Homo sapiens, UniProt Q9UKK3)

`NC(=O)c1cccc2cn(-c3ccc([C@@H]4CCCNC4)cc3)nc12` [NIRAPARIB] gave an IC50 [1] of 570 nM and an IC50 [2] of 330 nM.
